Source: patent EP4653424A1, “PYRIDAZINONE PARP INHIBITOR, AND PREPARATION METHOD THEREFOR, AND PHARMACEUTICAL COMPOSITION AND USE THEREOF” (China Pharmaceutical University, priority 2023, dated 2024)
pIC50: −log10 of the molar value.

Sequences of proteins named here, by UniProt entry; tags and fusion partners are left off.
UniProt Q7Z3E1, whole entry: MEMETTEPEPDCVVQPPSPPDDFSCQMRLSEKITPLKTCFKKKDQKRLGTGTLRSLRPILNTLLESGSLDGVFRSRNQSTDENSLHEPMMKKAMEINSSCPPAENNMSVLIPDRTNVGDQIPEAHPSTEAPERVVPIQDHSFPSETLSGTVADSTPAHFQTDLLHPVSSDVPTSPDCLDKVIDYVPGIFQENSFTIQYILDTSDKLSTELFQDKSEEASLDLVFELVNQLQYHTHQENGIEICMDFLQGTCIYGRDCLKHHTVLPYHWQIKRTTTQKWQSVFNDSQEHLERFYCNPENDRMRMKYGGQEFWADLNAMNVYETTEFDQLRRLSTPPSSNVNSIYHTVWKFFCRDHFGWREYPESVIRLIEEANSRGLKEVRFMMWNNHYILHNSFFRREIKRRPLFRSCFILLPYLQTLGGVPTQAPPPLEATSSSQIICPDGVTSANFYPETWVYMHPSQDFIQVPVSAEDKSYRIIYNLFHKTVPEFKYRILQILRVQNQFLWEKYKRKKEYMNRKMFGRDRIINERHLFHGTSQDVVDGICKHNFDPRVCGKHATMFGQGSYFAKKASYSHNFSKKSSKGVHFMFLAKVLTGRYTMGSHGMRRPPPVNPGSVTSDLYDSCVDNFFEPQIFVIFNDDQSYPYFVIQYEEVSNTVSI

How the values were obtained:
PARP7 enzyme = PARP7 enzyme (Homo sapiens, UniProt Q7Z3E1); assay: PARP7 Chemiluminescent Assay Kit enzyme inhibition assay; type: biochemical; details: for Inhibition at 100 nM: compound at 100 nM
Experimental: Example 60: Inhibitory activity of compounds against PARP7 enzyme
Materials: PARP7 Chemiluminescent Assay Kit, BPS Bioscience; DMSO, Sinopharm, Nivo, PerkinElmer.
Preparation of 10× PBS: 720 mg of KH2PO4, 45 g of NaCl, and 5.311 g of Na2HPO4·12H2O were dissolved in 500 mL of deionized water. The system was adjusted to pH 7.4, sterilized at 121 °C for 30 min, and cooled, and then preserved at 4 °C for later use.
Preparation of 1 × PBS: 10× PBS was diluted 10-fold with deionized water, i.e., 1 part of 10× PBS was diluted with 9 parts of deionized water.
Preparation of wash buffer: 1 × PBS containing 0.05% Tween-20.
Preparation of 1 × PARP buffer: (prepared right before use) 10× PARP buffer was diluted 10-fold with deionized water and placed on ice for later use.
According to the study requirements, the test compound was diluted to the desired concentration with 100% DMSO, and then diluted 10-fold with 1× PARP buffer to give a 10× compound working solution.
• a. 5× histone mixture was thawed on ice the day before the study; • b. 1× histone mixture was prepared by diluting 5× histone mixture into 1× histone mixture with 1× PBS; 25 µL of 1× histone mixture was added to each well of the test plate and incubated overnight at 4 °C; • c. 100 µL of the blocking buffer was taken per well and added to the test plate, and the plate was incubated at 25 °C for 90 min; • d. After the incubation was completed, the liquid in the test plate was discarded, and the plate was washed 3 times; • e. 2.5 µL of compound working solution was taken from each well and added to the test plate according to the experimental layout; a corresponding volume of 1× PARP buffer containing 10% DMSO was added to the positive control wells (Positive control), and a corresponding volume of 1× PARP buffer was added to the blank control wells (Blank); • f. After the enzyme was completely dissolved, the enzyme stock solution was diluted to 6 ng/µL with 1× PARP buffer; • g. The enzyme solution was added to a test well plate at 10 µL/well, and a corresponding volume of 1× PARP buffer was added to the blank control wells, where the enzyme amount was 60 ng/well. Note: this procedure should be performed on ice; • h. Master mixture (12.5 µL of master mixture containing 1.25 µL of 10× PARP buffer, 1.25 µL of Opti-PARP 10× Assay mixture, and 10 µL of water) was added to the test plate at 12.5 µL/well; the test plate was sealed with a film and incubated at 25 °C for 60 min; • i. After the incubation, the liquid in the test plate was discarded, and the plate was washed 3 times; • j. Streptavidin-HRP in the kit was 50-fold diluted with the Blocking buffer, and added to the test plate at 25 µL/well, and the plate was incubated at 25 °C for 30 min; • k. After the incubation, the liquid in the test plate was discarded, and the plate was washed 3 times; • l. ELISA ECL Substrate A and ELISA ECL Substrate B in the kit were mixed in a ratio of 1:1, the mixed solution was added to the test plate at 50 µL/well, luminescence detection was immediately performed using Nivo, and the luminescence value (RLU) was read; • m. Calculation of enzyme inhibition: % Enzyme Activity = (RLU(Sample)−RLU(Blank))/(RLU(Pos.Ctrl)−RLU(Blank)) × 100%; [formula] Enzyme inhibition = 1 - % Enzyme Activity; the IC 50 was calculated using GraphPad Prism 8.

Caco-2 cell = assay: Caco-2 bidirectional (ABBA) permeability assay; type: in vitro ADME
Experimental: Materials: test compounds I-A-1, I-A-2, and RBN-2397.
• (1) Caco-2 cell plating • 1. 600 µL of cell culture medium and 100 µL of cell culture medium were added to the wells of […], respectively; • 2. Before cell inoculation, Transwell was pre-incubated at 37 °C and 5% CO2 for 1 h; • 3. 100 µL of cell suspension (4 × 10^5 cells/mL) was seeded into the culture medium and cultured at 37 °C, 5% CO2, and 95% relative humidity for 14-21 days; • 4. The cell culture medium was replaced once every other day in the first 7 days, and once every day after day 7; • 5. The transepithelial electrical resistance (TEER) of the monolayer membrane was measured using EVOM3. • (2) ABBA process • 1. The plate was washed twice with pre-heated HBSS (10 mM HEPES, pH 7.4) and then incubated at 37 °C for 30 min. • 2. Test compounds were prepared in 1 mM DMSO and diluted 200-fold to 5 µM with HBSS (10 mM HEPES, pH 7.4) and HBSS (100 µM Lucifer Yellow, 10 mM HEPES, pH 7.4). • 3. Apical to basal direction: 200 µL of 5 µM working solution (100 µM Lucifer Yellow) was added to the apical compartment, and 600 µL of HBSS (10 mM HEPES, pH 7.4) was added to the basal compartment. • 4. Basal to apical direction: 600 µL of 5 µM working solution was added to the basal compartment, and 200 µL of HBSS (100 µM Lucifer Yellow, 10 mM HEPES, pH 7.4) was added to the apical compartment. • 5. 100 µL of 5 µM working solution was transferred to a sample plate containing 400 µL of cold methanol, and IS* was C0. • 6. The cell plate was incubated at 37 °C, 5% CO2, and 95% relative humidity for 2 h. • 7. 5 µL of the working solution was transferred from the apical compartment and the basal compartment to the plate. After 0.5 h of incubation, the 427 nm excitation values and 536 nm emission values were read by the Lucifer Yellow leakage detector. • 8. After 2 h of incubation, 100 µL of the solution was transferred from the apical and basal compartments with IS* to a sample plate containing 400 µL of cold methanol. • 9. The sample plate was centrifuged at 3220 g for 40 min. • 10. 100 µL of the supernatant was transferred to an assay plate containing an appropriate volume of water for LC-MS/MS analysis. • (3) Calculation
The apparent permeability coefficient (Papp, cm/s) and the efflux ratio were calculated using Microsoft Excel. Papp = (VA × Cacceptor × 100)/(Area × Time × Cinitial,donor) [formula] Efflux Ratio = (Papp(B−A))/(Papp(A−B)) [formula] Table 3. Physicochemical properties of test compounds

| Structure (SMILES) | pIC50 (PARP7 enzyme) | Inhibition at 100 nM (PARP7 enzyme) | also measured |
| --- | --- | --- | --- |
| O=c1[nH]ncc(N2CC(C(O)c3ccc(F)cc3)C2)c1C(F)(F)F (stereo not shown) | > 7.00 | +++ (inhibition at 100 nM ≥ 50%) | – |
| O=C(c1ccc(F)cc1)C1CN(c2cn[nH]c(=O)c2C(F)(F)F)C1 | > 7.00 | +++ (inhibition at 100 nM ≥ 50%) | – |
| O=C(CCNc1cn[nH]c(=O)c1C(F)(F)F)c1ccc(OCC2CCCC2)cc1 | > 7.00 | +++ (inhibition at 100 nM ≥ 50%) | – |
| O=C(c1cccc(F)c1)C1CN(c2cn[nH]c(=O)c2C(F)(F)F)C1 | > 7.00 | +++ (inhibition at 100 nM ≥ 50%) | – |
| O=C(CCNc1cn[nH]c(=O)c1C(F)(F)F)c1csc2ccccc12 | > 7.00 | +++ (inhibition at 100 nM ≥ 50%) | – |
| O=c1[nH]ncc(NCC#Cc2ccc(F)cc2)c1C(F)(F)F | 6.30 to 7.00 | ++ (50% > inhibition at 100 nM ≥ 25%) | – |
| O=c1[nH]ncc(NCC#Cc2cc(F)cc(F)c2)c1C(F)(F)F | 6.30 to 7.00 | ++ (50% > inhibition at 100 nM ≥ 25%) | – |
| O=c1[nH]ncc(NCCOc2ccccc2)c1C(F)(F)F | > 7.00 | +++ (inhibition at 100 nM ≥ 50%) | – |
| COc1ccc(C(=O)C2CN(c3cn[nH]c(=O)c3C(F)(F)F)C2)cc1 | > 7.00 | +++ (inhibition at 100 nM ≥ 50%) | – |
| O=C(c1ccccc1)C1CCN(c2cn[nH]c(=O)c2C(F)(F)F)C1 (stereo not shown) | > 7.00 | +++ (inhibition at 100 nM ≥ 50%) | – |
| O=c1[nH]ncc(N2CC(C(O)c3ccccc3)C2)c1C(F)(F)F (stereo not shown) | > 7.00 | +++ (inhibition at 100 nM ≥ 50%) | – |
| O=c1[nH]ncc(NCC#Cc2ccccc2)c1C(F)(F)F | > 7.00 | +++ (inhibition at 100 nM ≥ 50%) | efflux ratio (Caco-2 cell; Caco-2, summary in words): lower efflux ratio; membrane permeability (Caco-2 cell; Caco-2, summary in words): better membrane permeability; efflux ratio (Caco-2 cell; Papp(B-A)/Papp(A-B), Caco-2, 5 µM): 0.64; PappA→B (1E-6 cm/s) (Caco-2 cell; apical to basal, 5 µM, 2 h, Caco-2): 39.27 1E-6 cm/s; PappB→A (1E-6 cm/s) (Caco-2 cell; basal to apical, 5 µM, 2 h, Caco-2): 25.16 1E-6 cm/s |
| O=c1[nH]ncc(NCC#Cc2ncccn2)c1C(F)(F)F | 6.30 to 7.00 | ++ (50% > inhibition at 100 nM ≥ 25%) | – |
| Cc1ccc(C(=O)CCNc2cn[nH]c(=O)c2C(F)(F)F)cc1 | > 7.00 | +++ (inhibition at 100 nM ≥ 50%) | – |
| O=c1[nH]ncc(NCC#Cc2cccc(F)c2)c1C(F)(F)F | 6.30 to 7.00 | ++ (50% > inhibition at 100 nM ≥ 25%) | – |
| CCOc1ccc(C(=O)CCNc2cn[nH]c(=O)c2C(F)(F)F)cc1 | > 7.00 | +++ (inhibition at 100 nM ≥ 50%) | – |
| Cc1ccc(C(=O)C2CN(c3cn[nH]c(=O)c3C(F)(F)F)C2)cc1 | > 7.00 | +++ (inhibition at 100 nM ≥ 50%) | – |
| O=c1[nH]ncc(N2CC(C(O)c3cccc(F)c3)C2)c1C(F)(F)F (stereo not shown) | > 7.00 | +++ (inhibition at 100 nM ≥ 50%) | – |
| O=C(CCNc1cn[nH]c(=O)c1C(F)(F)F)c1ccc(OCC2CCCCC2)cc1 | > 7.00 | +++ (inhibition at 100 nM ≥ 50%) | – |
| O=C(CCNc1cn[nH]c(=O)c1C(F)(F)F)c1ccc(F)cc1 | > 7.00 | +++ (inhibition at 100 nM ≥ 50%) | – |
| O=C(c1ccccc1)C1CN(c2cn[nH]c(=O)c2C(F)(F)F)C1 | > 7.00 | +++ (inhibition at 100 nM ≥ 50%) | – |
| O=c1[nH]ncc(N2CC(Nc3ccccc3)C2)c1C(F)(F)F | > 7.00 | +++ (inhibition at 100 nM ≥ 50%) | – |
| Cc1ccc(C#CCNc2cn[nH]c(=O)c2C(F)(F)F)cc1 | 6.30 to 7.00 | +++ (inhibition at 100 nM ≥ 50%) | – |
| O=c1[nH]ncc(NCC#Cc2ccc3ncccc3c2)c1C(F)(F)F | > 7.00 | +++ (inhibition at 100 nM ≥ 50%) | – |
| O=c1[nH]ncc(NCCCc2ccccc2)c1C(F)(F)F | 6.30 to 7.00 | ++ (50% > inhibition at 100 nM ≥ 25%) | – |
